For the assay, the system named is JAK1/JAK2. It counts as cell-based, human. The settings on record: 48 h.

On to IFNγ, for which the “Average Fluorescence Intensity Density” value amounted to 0.06 and the “decrease in TurboFP635 fluorescence compared to control cells” value stood at 17.8%.

(Values after US11505782B2 (priority 2018, dated 2022).)
